The test has as its target human transferrin receptor (hTfR), form not stated (human) (UniProt P02786). Briefly: standard receptor-substrate binding assay on hTfR.

For one substance, EC50 results are on record in US20250340604A1, “BLOOD-BRAIN BARRIER TRANSLOCATING PEPTIDES AND RELATED MOLECULES AND METHODS OF USE THEREOF” (Enkefalos Biosciences, Inc., priority 2022, published 2025).

A word on the EC50: it is the midpoint of the concentration-response curve. Lower therefore signals greater potency.

“adalimumab-CYC17 cyclotide fusion (bivalent) (from UniProt P0DOX7 1-214) (other; other documents disagree on this pair)”: the EC50 was 0.45 nM.
